# scFv variants of Ab-14 (light chain) against a SARS-CoV-2 spike peptide

Values reported by Li et al. 2023, doi:10.1038/s41467-023-39022-2 (FLAb copy).

Binding partner: SARS-CoV-2 spike HR2 peptide, sequence PDVDLGDISGINAS.

Parent scFv Ab-14: VH joined to VL by three GGGGS repeats. Changes lie in the light chain CDRs alone.
VH: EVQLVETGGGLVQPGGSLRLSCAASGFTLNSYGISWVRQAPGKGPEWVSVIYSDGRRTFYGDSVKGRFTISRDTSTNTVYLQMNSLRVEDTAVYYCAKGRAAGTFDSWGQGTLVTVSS
VL: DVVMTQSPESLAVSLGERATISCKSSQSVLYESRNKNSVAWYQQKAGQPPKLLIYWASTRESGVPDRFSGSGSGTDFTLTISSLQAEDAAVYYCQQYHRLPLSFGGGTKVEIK

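The starting antibody came from a phage panning campaign against this peptide. The variants were designed computationally from a first round of random CDR variants and then made and measured. Several design methods are mixed in this list. In AlphaSeq, yeast of one mating type display the scFv and yeast of the other type display the target. Mating (16 h, 30 °C) was followed by selection of diploids and sequencing of their barcodes. Read counts were normalised to the haploid input and turned into Kd by a linear fit to BCL2-family pairs of known affinity, for each replicate. Mating was done six times.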

Each variant's VL is given in full. This list holds designs with more than six substitutions. The Kd shown is the geometric mean over detected replicates; a lower Kd is a better binder. A pair that was not seen in any replicate is written "nd"; this usually means weak binding, but a binder can also be missed. A sequence measured in both rounds can read differently, since the two assays cover different ranges. Background: pairings of all light chain designs with three empty control strains gave a value in 4% of cases (median 430 nM, 5th percentile 38 nM). Values in that range, when seen in few replicates, are hard to tell from nonspecific mating. Also given: how often the same scFv was detected with the empty control strains. In the paper, a design with two or fewer of six values counts as a poor binder. The parent sequence was in this pool as ten entries: three were never detected, three once, and four in most replicates, with averages from 2.2 nM to 240 nM.

Variant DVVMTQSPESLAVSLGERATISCKISQSWLYESRNKNSIAWYQQKAGQPPKLLIYNANQREQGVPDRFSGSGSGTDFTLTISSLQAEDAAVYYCQQYHRLPLSFGGGTKVEIK showed 370 pM (6 of 6 replicates; controls 0 of 18).
Variant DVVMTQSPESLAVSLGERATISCKLSLNLNDMDARMWNVAWYQQKAGQPPKLLIYEGNQLKAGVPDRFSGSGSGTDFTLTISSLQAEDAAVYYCQDYHRLPLHFGGGTKVEIK showed 5.7 nM (6 of 6 replicates; controls 0 of 18).
Variant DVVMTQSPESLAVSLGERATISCMLMQVGGYEMNAHNSIAWYQQKAGQPPKLLIYDLRTRENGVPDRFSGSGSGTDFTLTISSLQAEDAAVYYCQQYHRLPLSFGGGTKVEIK showed 100 nM (5 of 6 replicates; controls 0 of 18).
Variant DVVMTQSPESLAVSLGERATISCKLSGIMRLEQKASNSIAWYQQKAGQPPKLLIYEVNERSRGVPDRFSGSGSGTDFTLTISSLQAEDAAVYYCQQYDRLPLSFGGGTKVEIK showed 17 nM (6 of 6 replicates; controls 1 of 18).
Variant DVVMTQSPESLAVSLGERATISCTLSNSMDMTSRNVNSVAWYQQKAGQPPKLLIYDLTTRGNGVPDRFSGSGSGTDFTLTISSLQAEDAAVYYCQQYHRLPLSFGGGTKVEIK showed 670 pM (6 of 6 replicates; controls 0 of 18).
Variant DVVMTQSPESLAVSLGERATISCHQSQSVGQEERQKNSVAWYQQKAGQPPKLLIYAASTREVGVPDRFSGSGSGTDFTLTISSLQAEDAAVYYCQQYHRLPLSFGGGTKVEIK showed 1.6 nM (6 of 6 replicates; controls 3 of 18).
Variant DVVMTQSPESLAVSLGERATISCHLTEQNFDGERRAYNIAWYQQKAGQPPKLLIYAEVKHSYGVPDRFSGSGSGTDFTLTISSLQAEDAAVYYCQQYHRLPLMFGGGTKVEIK showed 1.8 µM (2 of 6 replicates; controls 0 of 18).
Variant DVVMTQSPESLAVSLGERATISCKFSQSVGYESRNKNSVAWYQQKAGQPPKLLIYNAQTRLEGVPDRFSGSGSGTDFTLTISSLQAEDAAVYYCQQYHRLPLMFGGGTKVEIK showed 1.2 nM (6 of 6 replicates; controls 1 of 18).
Variant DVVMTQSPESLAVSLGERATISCHISMMVGTKGYNKKSVAWYQQKAGQPPKLLIYNAETREDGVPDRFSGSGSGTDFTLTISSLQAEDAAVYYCQQYHRLPLSFGGGTKVEIK showed 830 pM (6 of 6 replicates; controls 1 of 18).
Variant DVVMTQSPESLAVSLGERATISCKLSMTHEMELKNRNSVAWYQQKAGQPPKLLIYELVTRMSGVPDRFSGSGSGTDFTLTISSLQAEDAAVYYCQQYNRLPLSFGGGTKVEIK showed 6.8 nM (6 of 6 replicates; controls 0 of 18).
Variant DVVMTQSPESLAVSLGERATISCKLMPSEWYESRMCNSVAWYQQKAGQPPKLLIYNASVREQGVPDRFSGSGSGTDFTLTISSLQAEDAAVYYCQQYHRLPLSFGGGTKVEIK showed 2.4 nM (6 of 6 replicates; controls 1 of 18).
Variant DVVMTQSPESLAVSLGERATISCTISGMVEEIETRQKNIAWYQQKAGQPPKLLIYEVEFRCMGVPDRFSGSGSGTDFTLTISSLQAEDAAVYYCQQYSRLPLSFGGGTKVEIK showed nd (0 of 6 replicates; controls 0 of 18).
Variant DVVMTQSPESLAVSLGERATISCMISDLTMYGLRNVNSVAWYQQKAGQPPKLLIYDLSNRGSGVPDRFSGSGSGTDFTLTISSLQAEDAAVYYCQQYDRLPLSFGGGTKVEIK showed 40 nM (6 of 6 replicates; controls 3 of 18).
Variant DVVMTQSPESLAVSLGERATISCKVSQSQLYEERNKNNVAWYQQKAGQPPKLLIYQASDRMSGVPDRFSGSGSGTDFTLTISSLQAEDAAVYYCQQYHRLPLSFGGGTKVEIK showed 680 pM (6 of 6 replicates; controls 0 of 18).
Variant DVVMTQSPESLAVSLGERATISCKLQTLTYTANIGESSVAWYQQKAGQPPKLLIYDVNTHVDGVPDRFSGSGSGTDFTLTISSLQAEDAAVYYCQQYFRLPLSFGGGTKVEIK showed 1.1 nM (6 of 6 replicates; controls 1 of 18).

The first 2 entries again:

VL	apparent Kd	detected	control signals
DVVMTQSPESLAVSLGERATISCKISQSWLYESRNKNSIAWYQQKAGQPPKLLIYNANQREQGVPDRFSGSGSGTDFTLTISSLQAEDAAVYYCQQYHRLPLSFGGGTKVEIK	370 pM	6/6	0/18
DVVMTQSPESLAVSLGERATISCKLSLNLNDMDARMWNVAWYQQKAGQPPKLLIYEGNQLKAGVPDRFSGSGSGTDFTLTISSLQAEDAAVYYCQDYHRLPLHFGGGTKVEIK	5.7 nM	6/6	0/18